Results on one compound are retold here after ChEMBL document CHEMBL1806354, “Identification of N-propylnoraporphin-11-yl 5-(1,2-dithiolan-3-yl)pentanoate as a new anti-Parkinson's agent possessing a dopamine D2 and serotonin 5-HT1A dual-agonist profile” (J Med Chem, 2011).

The chains behind the UniProt entries cited, without tags or fusion partners.
UniProt P14416, whole entry: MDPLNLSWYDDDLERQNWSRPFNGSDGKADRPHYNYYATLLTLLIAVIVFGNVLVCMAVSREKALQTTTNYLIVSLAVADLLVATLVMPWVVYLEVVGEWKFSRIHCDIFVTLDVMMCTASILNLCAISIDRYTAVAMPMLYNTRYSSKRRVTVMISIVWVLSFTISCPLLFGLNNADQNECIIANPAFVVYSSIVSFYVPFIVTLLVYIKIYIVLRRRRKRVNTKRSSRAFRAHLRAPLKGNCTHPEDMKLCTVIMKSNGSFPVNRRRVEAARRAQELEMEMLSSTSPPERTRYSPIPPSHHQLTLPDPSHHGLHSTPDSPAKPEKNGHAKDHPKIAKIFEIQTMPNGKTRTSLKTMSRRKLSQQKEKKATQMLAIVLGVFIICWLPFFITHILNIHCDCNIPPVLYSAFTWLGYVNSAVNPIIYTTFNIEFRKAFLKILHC

The target of this experiment is D(2) dopamine receptor (Homo sapiens, UniProt P14416). Briefly: Displacement of [3H]spiperone from dopamine D2 receptor expressed in HEK293 cells after 50 mins by beta liquid scintillation counter. Type of experiment: cell-based.

For orientation: Ki means a dissociation constant, usually derived from enzyme kinetics or from competition with a known ligand. A higher Ki goes with lower affinity. Compound `CCCN1CCc2cccc3c2C1Cc1cccc(O)c1-3` (racemic) gave an inhibition constant (Ki) of 854 nM.
